# Experimental data from BindingDB's records for 12672258 (University of Bath, 2003).
# Amino acid sequences for entries named in this document (tags omitted).
# UniProt P35372, whole entry, looked up: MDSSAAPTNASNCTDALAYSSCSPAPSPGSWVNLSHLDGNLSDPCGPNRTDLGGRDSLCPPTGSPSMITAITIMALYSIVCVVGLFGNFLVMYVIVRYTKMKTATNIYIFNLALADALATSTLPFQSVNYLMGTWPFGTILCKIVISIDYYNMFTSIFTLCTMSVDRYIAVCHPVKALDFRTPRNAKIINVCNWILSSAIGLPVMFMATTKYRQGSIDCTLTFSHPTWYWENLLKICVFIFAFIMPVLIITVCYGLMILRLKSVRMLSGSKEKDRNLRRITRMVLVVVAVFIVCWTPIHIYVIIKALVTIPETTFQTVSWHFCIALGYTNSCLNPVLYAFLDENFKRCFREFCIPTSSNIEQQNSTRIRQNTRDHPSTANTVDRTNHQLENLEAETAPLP
# UniProt P41143, whole entry, looked up: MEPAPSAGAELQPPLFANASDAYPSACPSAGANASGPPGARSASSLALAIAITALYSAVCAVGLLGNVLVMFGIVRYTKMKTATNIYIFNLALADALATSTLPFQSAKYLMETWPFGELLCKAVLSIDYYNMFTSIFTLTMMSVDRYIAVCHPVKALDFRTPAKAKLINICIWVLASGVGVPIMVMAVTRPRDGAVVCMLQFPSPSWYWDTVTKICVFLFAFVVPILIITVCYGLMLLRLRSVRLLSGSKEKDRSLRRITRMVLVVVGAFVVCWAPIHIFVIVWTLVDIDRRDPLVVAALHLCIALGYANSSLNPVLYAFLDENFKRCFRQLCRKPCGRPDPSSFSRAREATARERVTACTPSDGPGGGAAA
# Tests used:
# Mu-type opioid receptor = Mu-type opioid receptor (Homo sapiens, UniProt P35372); test: Stimulation of [35S]GTP-gamma-S, binding to recombinant human Opioid receptor mu 1 expressed in CHO cells
# [1] = target: Delta-type opioid receptor (Homo sapiens, UniProt P41143); test: Displacement of [3H]C1-DPDPE from human recombinant Opioid receptor delta 1 on CHO cell membranes.
smiles,measurement,setting,value
CN(C(=O)Cc1ccccc1)[C@H]1C[C@@]2(CCCO2)CC[C@@H]1N1CCCC1,EC50,Mu-type opioid receptor,> 10 µM
same,Ki,[1],> 10 µM
